{
  "sequences": {"note": "Amino acid sequences for entries named in this document (tags omitted).", "UniProt Q92830, whole entry": "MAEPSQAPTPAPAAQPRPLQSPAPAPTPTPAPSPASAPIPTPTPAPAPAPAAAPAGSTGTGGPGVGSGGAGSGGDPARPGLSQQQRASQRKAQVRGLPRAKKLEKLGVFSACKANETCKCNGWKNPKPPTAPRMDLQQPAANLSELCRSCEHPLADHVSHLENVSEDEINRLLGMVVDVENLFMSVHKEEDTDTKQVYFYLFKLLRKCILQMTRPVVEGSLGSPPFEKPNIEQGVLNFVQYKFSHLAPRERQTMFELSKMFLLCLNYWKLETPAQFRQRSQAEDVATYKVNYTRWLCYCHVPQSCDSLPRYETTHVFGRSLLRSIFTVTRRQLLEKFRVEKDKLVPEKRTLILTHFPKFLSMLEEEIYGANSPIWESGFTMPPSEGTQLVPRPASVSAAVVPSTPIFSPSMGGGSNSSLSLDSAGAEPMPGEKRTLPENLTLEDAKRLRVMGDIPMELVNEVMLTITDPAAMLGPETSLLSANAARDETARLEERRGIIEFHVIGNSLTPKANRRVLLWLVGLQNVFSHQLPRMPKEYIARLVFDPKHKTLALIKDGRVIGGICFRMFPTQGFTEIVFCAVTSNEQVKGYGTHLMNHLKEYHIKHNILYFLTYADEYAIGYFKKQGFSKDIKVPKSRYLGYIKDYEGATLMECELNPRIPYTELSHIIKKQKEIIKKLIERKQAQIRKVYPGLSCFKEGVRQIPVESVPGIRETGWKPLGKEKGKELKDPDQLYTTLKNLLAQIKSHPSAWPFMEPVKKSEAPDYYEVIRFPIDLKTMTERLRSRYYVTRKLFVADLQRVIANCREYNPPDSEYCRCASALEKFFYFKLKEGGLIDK"},
  "source": "PubChem BioAssay AID504327",
  "about": "(National Center for Advancing Translational Sciences (NCATS), 2011)",
  "note": "“And” between values parts separate entries of the source, which are not always exact repeats. Identical values can stand only once. The entries are a selection whose mix differs from that of the whole data set. Some results for these compounds are left out of this collection, so the calls shown say nothing about other tests. Inconclusive results are not listed. The source made the active and inactive calls. Calls follow the shape of the dose curve; as a rule, active = well fitted inhibition curve with a large enough effect; inconclusive = small, poorly fitted or top-dose-only effect, or another doubt; inactive = no such curve, though single readings can be large or run the other way. % is scaled to controls: 0 for no effect and ±100 for the full control effect.",
  "data": [
    {"biological_target": "Histone acetyltransferase KAT2A (Homo sapiens) (UniProt Q92830)", "experiment": "qHTS Assay for Inhibitors of GCN5L2", "conditions": "GCN5L2 HAT assay, ThioGlo1 CoA-SH fluorescence; at 58.9 µM (top of the series)", "values": [
      {"smiles": "O=C(NCC1(N2CCCCC2)CCCCC1)c1cccc(Cl)c1", "activity change, negative = inhibition": "inactive: 0.0698%"},
      {"smiles": "COc1ccc(C(=O)NCC2(N(C)C)CCCCC2)cc1Cl", "activity change, negative = inhibition": "inactive: -12.4%"},
      {"smiles": "COc1cccc(C(=O)NCC2(N3CCCCC3)CCCCC2)c1", "activity change, negative = inhibition": "inactive: -1.9%"},
      {"smiles": "COc1ccc(Cl)cc1C(=O)NCC1(N(C)C)CCCCC1", "activity change, negative = inhibition": "inactive: 2.8%"},
      {"smiles": "CN(C)C1(CNC(=O)c2ccc(Br)cc2)CCCCC1", "activity change, negative = inhibition": "inactive: -4.05%"},
      {"smiles": "CN(C)c1cccc(C(=O)NCC2(N(C)C)CCCCC2)c1", "activity change, negative = inhibition": "inactive: -4.66%"},
      {"smiles": "CC(C)Oc1ccc(C(=O)NCC2(N(C)C)CCCCC2)cc1", "activity change, negative = inhibition": "inactive: -8.39% and inactive: -1.55%"},
      {"smiles": "Cc1cccc(C(=O)NCC2(N(C)C)CCCCC2)c1", "activity change, negative = inhibition": "inactive: -6.51%"},
      {"smiles": "COc1cc(C(=O)NCC2(N(C)C)CCCCC2)cc(OC)c1OC", "activity change, negative = inhibition": "inactive: -4.79%"},
      {"smiles": "COc1ccc(Br)c(C(=O)NCC2(N3CCCCC3)CCCCC2)c1", "activity change, negative = inhibition": "inactive: -2.95%"},
      {"smiles": "CC(C)COc1ccc(C(=O)NCC2(N(C)C)CCCCC2)cc1", "activity change, negative = inhibition": "inactive: -5.21%"},
      {"smiles": "COc1cccc(C(=O)NCC2(N3CCOCC3)CCCCC2)c1", "activity change, negative = inhibition": "inactive: -5.4%"},
      {"smiles": "CN(C)C1(CNC(=O)c2ccccc2F)CCCCC1", "activity change, negative = inhibition": "inactive: -12.1%"},
      {"smiles": "Cc1ccc(C(=O)NCC2(N3CCCCC3)CCCCC2)cc1", "activity change, negative = inhibition": "inactive: 1.4%"},
      {"smiles": "CC(C)N1C(=O)CC2(CCN(CCOC(=O)C(O)(c3ccccc3)c3ccccc3)CC2)C1=O", "activity change, negative = inhibition": "inactive: -7.96%"},
      {"smiles": "CCN(CC)CC(C)C(C)OC(=O)C(O)(c1ccccc1)c1ccccc1", "note": "(stereo not drawn)", "activity change, negative = inhibition": "inactive: 4.18%"},
      {"smiles": "CN(C)C1(CNC(=O)c2cccc(Cl)c2)CCCCC1", "activity change, negative = inhibition": "inactive: -1.63%"},
      {"smiles": "COc1cc(SC)ccc1C(=O)NCC1(N(C)C)CCCCC1", "activity change, negative = inhibition": "inactive: -31%"},
      {"smiles": "CN1[C@@H]2CC[C@H]1CC(OC(=O)C(O)(c1ccccc1)c1ccccc1)C2", "note": "(stereo partly drawn)", "activity change, negative = inhibition": "inactive: -0.248%"},
      {"smiles": "O=C(NCC1(N2CCCCC2)CCCCC1)c1cc([N+](=O)[O-])ccc1Cl", "activity change, negative = inhibition": "inactive: -6.41%"},
      {"smiles": "CCN1CCCC(OC(=O)C2(O)c3ccccc3C=Cc3ccccc32)C1", "note": "(stereo not drawn)", "activity change, negative = inhibition": "inactive: 1.16%"},
      {"smiles": "Cc1cc(C(=O)NCC2(N3CCCCC3)CCCCC2)ccc1[N+](=O)[O-]", "activity change, negative = inhibition": "inactive: 3.08%"},
      {"smiles": "O=C(NCC1(N2CCCCC2)CCCCC1)c1cccc(Br)c1", "activity change, negative = inhibition": "inactive: -4.45%"},
      {"smiles": "COc1ccc(C(=O)NCC2(N(C)C)CCCCC2)cc1", "activity change, negative = inhibition": "inactive: 21.2%"},
      {"smiles": "CCOc1cccc(C(=O)NCC2(N(C)C)CCCCC2)c1", "activity change, negative = inhibition": "inactive: -11.2%"},
      {"smiles": "C=CCN1CCN(CCOC(=O)C(O)(c2ccccc2)c2ccccc2)CC1", "activity change, negative = inhibition": "inactive: 2.52%"},
      {"smiles": "O=C(NCC1(N2CCCCC2)CCCCC1)c1cc(F)c(F)cc1Cl", "activity change, negative = inhibition": "inactive: -1.23%"},
      {"smiles": "CN1CCCC(OC(=O)C(O)(c2ccccc2)c2ccccc2)C1", "note": "(stereo not drawn)", "activity change, negative = inhibition": "inactive: -0.867%"},
      {"smiles": "CCCCOc1ccccc1C(=O)NCC1(N(C)C)CCCCC1", "activity change, negative = inhibition": "inactive: -5.75%"},
      {"smiles": "Cc1ccccc1C(=O)NCC1(N2CCCCC2)CCCCC1", "activity change, negative = inhibition": "inactive: 2.38%"},
      {"smiles": "CN(C)C1(CNC(=O)c2ccccc2[N+](=O)[O-])CCCCC1", "activity change, negative = inhibition": "inactive: -3.49%"},
      {"smiles": "CN(C)c1ccc(C(=O)NCC2(N(C)C)CCCCC2)cc1", "activity change, negative = inhibition": "inactive: -2.12%"},
      {"smiles": "CN(C)C1CCCC1OC(=O)C(O)(c1ccccc1)c1ccccc1", "note": "(stereo not drawn)", "activity change, negative = inhibition": "inactive: 0.159%"}
    ]}
  ]
}
